Measured values taken from US4521538A (Medosan Industrie Biochimiche Riunite S.p.A., priority 1982, dated 1985).

Experiments:
[1] = assay type: in vivo, male Wistar rats; details: four days
Experimental: Male Wistar rats weighing 180 g were randomized into groups of 10. Three doses of each compound were administered. One group received the vehicle alone (10 ml/kg b.w.). Each dose was given orally for four days consecutively and the rats were sacrificed on the fifth day for necropsy. The ulcerogenic effect was evaluated by the following scale:
(1) each haemorrhagic point at least 1 mm in diameter was scored as 1 lesion,
(2) haemorrhagic points less than 1 mm in diameter were scored in the following manner:
(c) 20 to 29=three lesions
(2) gastric mucosal irritation without haemorrhage: 1
(3) haemorrhagic points less than 1 mm in diameter: 2
(4) haemorrhagic points between 1 and 3 mm in diameter: 3
(5) haemorrhagic points larger than 3 mm in diameter: 4
By means of this scale it was possible to obtain the gastric damage index: [formula]

[2] = in vivo; details: mouse, mice
[3] = in vivo; details: rat, rats

Row | Structure (SMILES) | % incidence / 10 ([1]; 50 mg/kg orally) | % incidence / 10 ([1]; 100 mg/kg orally) | % incidence / 10 ([1]; 200 mg/kg orally) | LD50 ([2]; ip) | LD50 ([2]; po, per os) | LD50 ([3]; ip) | LD50 ([3]; po, per os)
1 | Cc1ccc(C(=O)c2ccc(CC(=O)O)n2C)cc1 [Tolmetin Na.2H2 O, 1-mehtyl-5-p-toluoyl-2-acetic acid sodium salt dihydrate] | 7 | 10 | 10 |  |  |  | 
2 | Cc1ccc(C(=O)c2ccc(CC(=O)O)n2C)cc1 [Tolmetin] |  |  |  | 550 mg/kg | 802 mg/kg | 612 mg/kg | 827 mg/kg

Counter-ions that a name gives are not always drawn. Like-named read-outs stand apart in the source and are kept apart here.
